Activity data for 1 compound are collected here from ChEMBL document CHEMBL1152669, “New R/S-3,4-dihydro-2,2-dimethyl-2H-1-benzopyrans as K(ATP) channel openers: modulation of the 4-position” (Bioorg Med Chem, 2009).

The test is filed under the species Rattus norvegicus. Briefly: Channel opening activity at KATP channel in Wistar rat pancreatic islets assessed as glucose-induced residual insulin secretion at 1 uM after 90 mins by radioimmunology. In outline:
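Islets from adult fed rats, groups of 10, preincubated 30 min at 37 °C in bicarbonate salt medium with 2.8 mM glucose, 0.5% dialyzed albumin, O2/CO2 gassed. Then incubated 90 min at 37 °C with 16.7 mM glucose plus drug. Insulin by radioimmunoassay against rat insulin standard; expressed as % of drug-free 16.7 mM glucose control; mean ± SEM (n).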

Each structure is given as a SMILES string.

Consider `CC(N/C(=N\C#N)Nc1ccncc1)C(C)(C)C` (racemic) [PINACIDIL ANHYDROUS], for which the Activity came to 97.7%.
